From patent US10752631B2, “Heterocyclic compounds as FGFR inhibitors” (GUANGZHOU INNOCARE PHARMA TECH CO., LTD., priority 2016, dated 2020) come the findings set out here.

This experiment concerns RT4 bladder cancer cells. In words: cells. Conditions: Homo sapiens, RT-4, 72 h, read-out: RT4 IC50 (nM).
In the case of `C=CC(=O)N1CC[C@H](c2nc(C#Cc3cc(OC)cc(OC)c3)c3c(N)nccn23)C1` [Compound 1, (S)-1-((3,5-Dimethoxyphenyl)ethynyl)-3-(1-acrylpyrrolidin-3-yl)imidazo[1,5-a]pyrazin-8-amine], the half-maximal inhibitory concentration (IC50) was below 100 nM.

With `C=CC(=O)N1CC(c2nc(C#Cc3cc(OC)cc(OC)c3)c3c(N)nccn23)C1` [Compound 2, 1-((3,5-Dimethoxyphenyl)ethynyl)-3-(1-acrylazacyclobutan-3-yl)imidazo[1,5-a]pyrazin-8-amine], the IC50 was in the range of 100 to 500 nM.

As to `C=CC(=O)N1CCC(c2nc(C#Cc3cc(OC)cc(OC)c3)c3c(N)nccn23)C1` (stereo not drawn) [Compound 4, 1-((3,5-Dimethoxyphenyl)ethynyl)-3-(1-acrylpyrrolidin-3-yl)imidazo[1,5-a]pyrazin-8-amine], the 50% inhibitory concentration (IC50) is 100 to 500 nM.

Usually IC50 stands for the concentration needed to halve the response being measured.
